Yeast mating assay B: variants of the scFv Ab-14

Antigen: PDVDLGDISGINAS, a 14-residue peptide of the SARS-CoV-2 spike HR2 region.

Parent scFv Ab-14: VH joined to VL by the linker GGGGSGGGGSGGGGS. Changes lie in the heavy chain CDRs alone.
VH: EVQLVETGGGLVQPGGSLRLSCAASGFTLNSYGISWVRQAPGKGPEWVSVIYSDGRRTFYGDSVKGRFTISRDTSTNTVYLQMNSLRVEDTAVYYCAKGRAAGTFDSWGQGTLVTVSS
VL: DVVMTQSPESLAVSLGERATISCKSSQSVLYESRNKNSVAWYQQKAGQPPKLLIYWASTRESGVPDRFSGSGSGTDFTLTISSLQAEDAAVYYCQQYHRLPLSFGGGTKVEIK

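The starting antibody came from a phage panning campaign against this peptide. These sequences belong to a second round, designed from the earlier measurements on random variants of the parent. Several design methods are mixed in this list. Affinity was read by AlphaSeq, a pooled yeast mating assay with surface-displayed partners. Mating (16 h, 30 °C) was followed by selection of diploids and sequencing of their barcodes. Each replicate has its own calibration line, from reference interactions of the BCL2 family. Each pool was mated in six replicate cultures.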

Variants are written as CDR1, CDR2 and CDR3 of the heavy chain (limits as in the source). Parent: GFTLNSYGIS, VIYSDGRRTFYGDSVK, GRAAGTFDS. Numbers give log10(Kd / nM), so 0 is 1 nM and 3 is 1 µM. Smaller is tighter. Averages over replicates are reported, and they cover detected replicates only. An entry "nd" has no value in the source: the pair was not observed among the diploids in any replicate. This suggests poor binding but is not conclusive. Entries are sorted by rising average, undetected variants last. The authors' rule: three or more of the six replicates give a measured affinity, fewer mean a poor binder.

CDR-H1	CDR-H2	CDR-H3	log10 Kd (nM), mean	seen in
GFDLDEYGIS	VIYADGMRTFYADSVK	GELAGTFDS	-0.57	6 of 6
GFDLNEYGIS	VIYADGMRTAYANSVK	GETAGTFDL	-0.54	6 of 6
GFDLNEYGIS	VIYADGMRTFYIDSVK	GENAGTFDV	-0.50	6 of 6
GFDLESYGIS	VIYADGRRTFYSDSVK	GTNAGTFDI	-0.33	6 of 6
GFDLNEYGIS	VIYADGQRTAYADSVK	GETAGTFDT	-0.31	6 of 6
GFDLNSYGIS	VIYSDGRRTAYGDSVK	GRAAGTFDS	-0.26	6 of 6
GFSLNSYGIS	VIYSDGQRTFYGDSVK	GRVAGTFDS	-0.17	6 of 6
GFDLNEYGIS	VIYADGRRTAYADDVK	GNNAGTFDM	-0.08	6 of 6
GFTLNEYGIS	VIYSDGRRTFYSDSVK	GQCAGTFDS	-0.06	6 of 6
GFDLNSYGIS	VIYSDGRRTFYADSVK	GSAAGTFDS	0.09	6 of 6
GFELNDYGIS	VIYSDGRRTFYGDSVK	GRMAGTFDS	0.15	6 of 6
GFDLNEYGIS	VIYADGMRTFYKDSVK	GTNGGTFDV	0.16	6 of 6
GFNLNSYGIS	VIYSDGRRTFYTDSVK	GRTAGTFDS	0.19	6 of 6
GFTLDSYGIS	VIYSDGRRTFYADSVK	GRVAGTFDK	0.29	6 of 6
GFSLNNYGIS	VIYSDGRRTFYGDSVK	GRTAGTFDS	0.35	6 of 6
GFDLNEYGIS	VIYADGRRTAYADSVK	GQIAGTFDQ	0.36	6 of 6
DFTLNEYGIS	VIYSDGRRTAYGDSVK	GRAAGTFDS	0.37	6 of 6
GFSLNSYGIS	VIYSDGRRTFYGDNVK	GRNAGTFDS	0.40	6 of 6
GFDLDEYGIS	VIYADGVRTAYADDVK	GENAGTFDL	0.43	5 of 6
GFQLNEYGIS	VIYSDGRRTFYKDSVK	GQTAGTFDS	0.47	6 of 6
GFTLNSYGIS	VIYSDGIRTFYGDSVK	GQTAGTFDV	0.56	6 of 6
GFDLNEYGIS	VIYADGKRTFYVDSVK	GVNAGTFDV	0.64	6 of 6
GFWLNEYGIS	VIYSDGRRTFYDDSVK	GKAAGTFDS	0.81	6 of 6
GFTLDSYGIS	VIYSDGRRTFYGDRVK	GRTAGTFDA	0.85	5 of 6
GFDLNEYGIS	VIYADGMRTQYADDVK	GNNAGTFDV	0.87	5 of 6
GFGLNSYGIS	VIYSDGRRTFYGDSVK	GRTAGTFDS	1.10	6 of 6
GFNLNEYGIS	VIYSDGRRTFYTDSVK	GRHAGTFDS	1.11	6 of 6
GTTLNSYGIS	VIYSDGRRTFYSDSVK	GEAAGTFDS	1.34	5 of 6
GFTINSYGIS	VIYSDGRRTFYGDSVK	GRWAGSFDS	1.45	1 of 6
GFTLNSYGIS	VIYSDGRRTQYADSVK	GQAAGTFDS	1.67	4 of 6
GNTLNEYGIS	VIYSDGRRTFYGDSVK	GRMAGTFDI	1.77	1 of 6
GFQLNSYGIS	VIYSDGKRTFYGDSVK	GRAAGTFDS	1.81	5 of 6
EFDLNEYGIS	VIYADGHRTFYAEHVK	GTNSGVFDT	2.14	1 of 6
GFWLASYGIS	VIYSDGRRTFYLDSVK	GFSAGTFDS	2.20	1 of 6
GEDLNSYGIS	VIYADGLRTAYADNFK	GNGEGQFDM	2.95	3 of 6
GFDLEDYGIS	VIYADGRRTFYADSVK	GEIAGTFDV	nd	0 of 6
GFTLNDYGIS	VIYSDGRRTKYGDSVK	GRAALTFIT	nd	0 of 6
GFTLNKYGIS	VIYADGRRTFYGDSVK	GRAAGTDDS	nd	0 of 6
GFTLDSYGIS	VIYSDGRRTFYTDSFK	GRAAGTFDS	nd	0 of 6
GFTLDSYGIS	VIYSDGRRTFYGGSVK	GRAAGTFDS	nd	0 of 6
GFDLDEQGIS	VIYADGQRTAYADQVK	GMIGDIFRT	nd	0 of 6
GFTLNSYGIS	VIYSDGRRTFYGDAVK	GREAGWFDL	nd	0 of 6
GFTLNSYGIS	VIYSDGFRTFYGDRVK	GRAAGTFDS	nd	0 of 6
GFTLNDYGIS	VIYSDGRRTQYIDSVK	GRPAGTEDS	nd	0 of 6
GFTLNSYGIS	VIYADGRRTFYGDSVK	WRAAGTFDH	nd	0 of 6
GFDIEEYGIS	VIYADGKRMAYSNKVK	GLMAGTMID	nd	0 of 6
GKNIDEYGVS	VIYADGKRTAYANNFK	GGNAGFFKS	nd	0 of 6
GFDLNEYGIS	VIYADGLRKSYADSVK	NGLRSFFFV	nd	0 of 6
GFTLNSYGVS	VIYSDGRRTFYGDSVR	GQSAGTFDD	nd	0 of 6
GFTLDSYGIS	VIYSDGRRTFYGDSVK	GPAAGTFDS	nd	0 of 6

Background: pairings of all heavy chain designs with three empty control strains gave a value in 1% of cases (median 2.08, 5th percentile 0.84). Values in that range, when seen in few replicates, are hard to tell from nonspecific mating. The range of this assay differs from that of the first round, and the authors advise against merging the two.

The measurements come from Li et al. 2023 (doi:10.1038/s41467-023-39022-2) through the FLAb antibody collection.